# Test results reported in patent US20240327535A1 (EISAI R AND D MANAGEMENT, published 2024).
# T1: human BCMA on NCI-H929, OPM2 and Raji cells (human, UniProt Q02223 1-184)
# T1 construct: endogenous BCMA of human cell lines; also called TNFRSF17; CD269
# T1 chain: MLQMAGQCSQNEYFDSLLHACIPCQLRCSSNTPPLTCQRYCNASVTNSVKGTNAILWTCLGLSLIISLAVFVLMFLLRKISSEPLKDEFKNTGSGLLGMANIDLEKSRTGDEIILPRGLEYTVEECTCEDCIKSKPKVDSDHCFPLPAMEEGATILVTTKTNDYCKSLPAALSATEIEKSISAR
# Biological target: T1, human BCMA on NCI-H929, OPM2 and Raji …
# Experiment: flow cytometry, NCI-H929 cells
binder,measurement,value
"AB200-mcMMAF-05 (antibody, human IgG1, kappa, V domains shown, mcMMAF (ADL10-MMAF) linker-payload on cysteine residues of the antibody, DAR 4.0, antibody-drug conjugate; also called AB200-ADL10-MMAF) VH: QVQLVQSGAEVKKPGSSVKVSCKASGGTFSNYWMHWVRQAPGQGLEWMGATYRGHSDTYYNQKFKGRVTITADKSTSTAYMELSSLRSEDTAVYYCARGAIYDGYDVLDNWGQGTLVTVSS VL: DIQMTQSPSSLSASVGDRVTITCSASQDISNYLNWYQQKPGKAPKLLIYYTSNLHSGVPSRFSGSGSGTDFTLTISSLQPEDFATYYCQQYRKLPWTFGQGTKLEIKR",Kd,6.5 nM
